# According to PMC3985653, “A bacteriophage transcription regulator inhibits bacterial transcription initiation by σ-factor displacement” (2014):
# What was measured:
# [1] = target: α-P7 fusion protein (P7 fused to the α-NTD), wild type; test: bacterial two-hybrid (BTH) interaction assay, β-galactosidase read-out; conditions: read off a plot
# [2] = target: internal_change (UniProt P0A7Z4+P0A8V2+Q2NZX9+P0A800+P00579); test: EMSA; conditions: scale: % decrease of sigma70-32P in RPo band vs no P7
# [3] = target: λCI-β’ NTD (Xo β’ residues 1–10 fused to the λ CI protein); test: bacterial two-hybrid (BTH) interaction assay, β-galactosidase read-out; conditions: parent: est. 11000; read off a plot
Substance,"response ([1]; 20 µM IPTG, parent: est. 460)","response ([1]; 50 µM IPTG, parent: est. 490)","response ([1]; 100 µM IPTG, parent: est. 520)",response [3],also measured
λCI-Ec β flap domain (aa residues 831–1057) (from UniProt P0A8V2) L901A,280 Miller units,300 Miller units,320 Miller units,,
GTTAGCTCACTCATTAGGCACCCCAGGCTTTACACTTTATGCTTCCGGCTCGTATAATGTGTGGAATTGTGAGCGGATAACAATTTCACACAGGAAACAG (double strand) [lacUV5 promoter [-64 to +36]],,,,,binding signal [2]: 50
"α-P7 fusion protein (P7 fused to the α-NTD), wild type V51A",,,,900 Miller units,
"α-P7 fusion protein (P7 fused to the α-NTD), wild type L67A",,,,8200 Miller units,
"α-P7 fusion protein (P7 fused to the α-NTD), wild type F50A",,,,1300 Miller units,
λCI-Ec β flap domain (aa residues 831–1057) (from UniProt P0A8V2) I905A,250 Miller units,260 Miller units,270 Miller units,,
